Target: Adenosine receptor A1 (Rattus norvegicus, UniProt P25099)
Test: biochemical

Amino acid sequences for entries named in this document (tags omitted).
UniProt P25099, whole entry: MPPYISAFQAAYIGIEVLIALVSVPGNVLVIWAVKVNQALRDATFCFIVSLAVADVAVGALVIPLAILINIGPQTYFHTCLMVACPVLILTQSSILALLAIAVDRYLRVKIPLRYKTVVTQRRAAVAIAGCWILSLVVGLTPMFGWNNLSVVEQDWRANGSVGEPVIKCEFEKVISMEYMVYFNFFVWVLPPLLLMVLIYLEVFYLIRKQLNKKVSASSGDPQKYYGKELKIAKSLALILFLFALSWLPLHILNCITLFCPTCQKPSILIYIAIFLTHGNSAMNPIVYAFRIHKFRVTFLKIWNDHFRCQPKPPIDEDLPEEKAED

- Ki: 600 nM
Structure (SMILES): Nc1nc(Nc2ccccc2)nc2c1ncn2[C@@H]1O[C@H](CO)[C@@H](O)[C@H]1O

From ChEMBL document CHEMBL1124142, “N6-[2-(3,5-dimethoxyphenyl)-2-(2-methylphenyl)ethyl]adenosine and its uronamide derivatives. Novel adenosine agonists with both high affinity and high selectivity for the adenosine A2 receptor” (J Med Chem, 1988)
